Results published in PubChem BioAssay AID493239 (Broad Institute, 2011).
The entries are a selection whose mix differs from that of the whole data set. The source made the active and inactive calls.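 Rule for the calls: active = fitted curve crosses 40% activation at or below the top valid dose tested for that sample; inconclusive = flat fit between 30 and 70% activation, or poor fit; inactive = the rest, including activity in the opposite direction.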

Test: activators of HIF1alpha nuclear translocation – imaging, U2OS, high content, dry powder, set 3, orthogonal assay for HIF pathway activator project, dose response (AID 493239)
Settings: U2OS GFP-HIF1alpha nuclear intensity imaging; at 38 µM (top of the series)
In short: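 System: U2OS cells carrying GFP-HIF1alpha; Amount: 2,000 cells/well; Buffer or medium: phenol red-free DMEM with 10% fetal bovine serum; Compound: Eight-point threefold compound dilution series; Schedule: cells plated one day before dosing, compound exposure 24 h at 37 °C; Signal: fluorescence imaging at 10X of formaldehyde-fixed, DAPI-counterstained cells; Benchmarks: Desferrioxamine positive control; Replication: duplicates.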

## O=c1[nH]c2ccccc2n1C1CCN(Cc2ccc(O)c3ncccc23)CC1
  activation: inactive: 24.6%
